# B1: rhGCPII(K699S) mutant (Homo sapiens; K699S) (protein)
# chain: KSSNEATNITPKHNMKAFLDELKAENIKKFLYNFTQIPHLAGTEQNFQLAKQIQSQWKEFGLDSVELAHYDVLLSYPNKTHPNYISIINEDGNEIFNTSLFEPPPPGYENVSDIVPPFSAFSPQGMPEGDLVYVNYARTEDFFKLERDMKINCSGKIVIARYGKVFRGNKVKNAQLAGAKGVILYSDPADYFAPGVKSYPDGWNLPGGGVQRGNILNLNGAGDPLTPGYPANEYAYRRGIAEAVGLPSIPVHPIGYYDAQKLLEKMGGSAPPDSSWRGSLKVPYNVGPGFTGNFSTQKVKMHIHSTNEVTRIYNVIGTLRGAVEPDRYVILGGHRDSWVFGGIDPQSGAAVVHEIVRSFGTLKKEGWRPRRTILFASWDAEEFGLLGSTEWAEENSRLLQERGVAYINADSSIEGNYTLRVDCTPLMYSLVHNLTKELKSPDEGFEGKSLYESWTKKSPSPEFSGMPRISKLGSGNDFEVFFQRLGIASGRARYTKNWETNKFSGYPLYHSVYETYELVEKFYDPMFKYHLTVAQVRGGMVFELANSIVLPFDCRDYAVVLRKYADKIYSISMKHPQEMKTYSVSFDSLFSAVKNFTEIASKFSERLQDFDKSNPIVLRMMNDQLMFLERAFIDPLGLPDRPFYRHVIYAPSSHNSYAGESFPGIYDALFDIESKVDPSKAWGEVKRQIYVAAFTVQAAAETLSEVA
# Key:
# [1] = substrate: CSCC[C@H](NC(=O)[C@H](CC(=O)O)NC(C)=O)C(=O)O; test: Saturation kinetics of substrate hydrolysis by mutated GCPII; assay type: biochemical, human; details: other: K699S mutant; 37.0 °C
# [2] = substrate: CCCCCCCC(NC(=O)[C@H](CC(=O)O)NC(C)=O)C(=O)O; test: as above; assay type: biochemical, human; details: other: K699S mutant; 37.0 °C
protein,measurement,setting,value
B1,Km,[1],2.6 ± 1.1 µM
same,kcat,[1],0.25 ± 0.04 s⁻¹
same,kcat/Km,[1],96200 M⁻¹ s⁻¹
same,Km,[2],2.9 ± 0.7 µM
same,kcat,[2],0.37 ± 0.05 s⁻¹
same,kcat/Km,[2],128000 M⁻¹ s⁻¹
